Conditions: water, 1 h

inclusion complex of α-cyclodextrin and piperonyl butoxide [Example 7]
amount of piperonyl butoxide which can be dissolved from the complex: 0.165 mg/mL

From patent US4524068A, “Cyclodextrin inclusion complex of piperonyl butoxide” (priority 1982, dated 1985)
